From patent publication US20260382613A1, “METHODS OF TREATING ACUTE LEUKEMIA” (published 2026)

Experiments:
[1] = clinical pharmacokinetics / exposure and exposure-response
Wild-type menin = details: menin-MLL binding assay; cited from earlier work
[2] = test system: peripheral blasts and white blood cells; test: peripheral blasts and white blood cells in treated patients; details: 600 mg on-target, Cycle 1 (28 days), Ph1a and 1b
[3] = patient disposition in Phase 1 study
MEN1-M327I = test: MEN1 resistance mutation analysis by RNA sequencing of patient samples
M327I-mutant MEN1 = details: M327I menin, menin-MLL binding assay; cited from earlier work
[4] = plasma protein binding by ultracentrifugation, LC-MS/MS; details: 0.2, 2, and 10 μM; 37 °C
G331D menin = details: menin-MLL binding assay; cited from earlier work
MEIS1 = details: for reduction of MEIS1 expression: end of Cycle 1
[5] = NPM1-m 600 mg N=20, cutoff 12 Apr 2023

SMILES: CNc1nc(NC2CCN(Cc3ccc4c(cc(C#N)n4C[C@H](C)N4CCN(S(C)(=O)=O)CC4)c3C)CC2)c2cc(CC(F)(F)F)sc2n1
- correlation of exposure with risk of ≥Grade 3 AEs ([1]; NPM1-m): not correlated with greater risk of ≥Grade 3 AEs
- overlap in exposure between 200/400 mg and 400/600 mg dose levels ([1]; Ph1a): significant overlap in exposure
- correlation of exposure beyond 600 mg with clinical response ([1]; any genetic subgroup): not significantly correlated with an increased probability of clinical response
- exposure (AUC0-24, Ctrough, Cmax at steady state), 600 mg vs 200 mg ([1]; steady state, QD): dose-dependent increases in exposure with the 600 mg dose over the 200 mg dose
- exposure, 600 mg vs 800 mg ([1]; steady state, QD): comparable
- IC50 (Wild-type menin): 4.1 nM
- mean change from baseline in peripheral blasts and white blood cells [2]: transient increases in these blood chemistry markers over the first one to two weeks, followed by reductions in these markers during the remainder of the first cycle
- Treatment discontinuation - Adverse event [3, 5]: 5 (25) %
- Treatment discontinuation - Death [3, 5]: 1 (5) %
- Treatment discontinuation - Disease progression (including clinical) [3, 5]: 9 (45) %
- relatedness of adverse events leading to discontinuation [3, 5]: ^bAll adverse events leading to discontinuation were not considered study drug related.
- treatment discontinued due to death ([3]; NPM1-m 600 mg N=20, cutoff 30 Aug 2023): 5%
- Treatment discontinuation - Adverse Events ([3]; Ph1b 200 mg n=17): 2 (11.8) %
- Treatment discontinuation - Death ([3]; Ph1b 200 mg n=17): 4 (23.5) %
- Treatment discontinuation - Disease progression (inc. clinical) ([3]; Ph1b 200 mg n=17): 5 (29.4) %
- Treatment discontinuation - Adverse Events ([3]; Ph1b 600 mg n=36): 4 (11.1) %
- Treatment discontinuation - Death ([3]; Ph1b 600 mg n=36): 3 (8.3) %
- Treatment discontinuation - Disease progression (inc. clinical) ([3]; Ph1b 600 mg n=36): 11 (30.6) %
- patients discontinued due to an adverse event ([3]; Ph1b, 53 patients): six
- patients developing resistance mutation MEN1-M327I (MEN1-M327I; 1 of 29 patients): 3.4%
- additional MEN1 resistance mutations (MEN1-M327I; 29 treated patients): No additional resistance mutations were detected
- IC50 (M327I-mutant MEN1): 71 nM
- plasma protein binding [4]: more than 99%
- IC50 (G331D menin): 2000 nM
- reduction of MEIS1 expression (MEIS1; 200 mg, two patients): no reduction was detected
- reduction of MEIS1 expression (MEIS1; 600 mg, four patients): more than 85%
- target gene expression at 800 mg (MEIS1; 800 mg): did not provide evidence of further knockdown

Where two headings read alike, the source gives them in different places.
